Reference: patent US9259420B2, “Tetrandrine pharmaceutical formulations” (CBA Pharma, Inc., priority 2012, dated 2016)

Experiment: bioequivalence study in rats: d-tetrandrine plasma concentration after oral gavage of free base versus hydrochloride salt (HPLC)
Format: in vivo, Sprague-Dawley rats
Method: A bioequivalence study in rats was conducted to compare the rate and extent to which the active drug ingredient (d-tetrandrine) is absorbed from a free base versus a hydrochloride salt. The drug ingredients were formulated in capsules by the University of Kentucky Center for Pharmaceutical Sciences and Technology (CPST) to administer equivalent amounts of d-tetrandrine to rats via oral gavage. Dosing syringes, capsule filling apparatus and mini capsules (size 9) appropriate for dosing rats were obtained from Torpac (Fairfield, N.J.).
A single rat per time point (destructive sampling) was used to obtain as much blood volume as possible for the HPLC analysis. This was necessary to accommodate analysis with the current UV based HPLC assay that had extensively been used at CBA Pharma. The JPLC analyses were performed at the CBA Pharma facilities, by a scientist with extensive experience in plasma based assay. Results were provided to a second scientist for evaluation and modeling.
Given the limited information on rat d-tetrandrine pharmacokinetics (PK), the studies were conducted in stages. A preliminary study (pilot) to identify the dose required for adequate assay sensitivity was first conducted using approximately 25 mg/kg and approximately 120 mg/kg doses administered in capsules. […]
In some cases the plasma concentrations could not be determined due to extremely high interfering peaks. […]

Substance: d-tetrandrine-2HCl
- AUC estimates (Bailer method), acid versus base formulation (100 mg/kg, p>0.05, FIG. 6): no statistical or otherwise significant difference
- plasma concentrations and dose normalized plasma concentrations, comparison of d-tetrandrine and d-tetrandrine-2HCl formulations (higher dose (approximately 230 mg/kg capsules, 200 mg/kg liquid/suspension), Student t-test, two-tailed, p>0.05, FIG. 2): no statistical difference
